The text below walks through data of patent US20070105759A1 (priority 2003, published 2007).

The chains behind the UniProt entries cited, without tags or fusion partners.
UniProt P32245, whole entry: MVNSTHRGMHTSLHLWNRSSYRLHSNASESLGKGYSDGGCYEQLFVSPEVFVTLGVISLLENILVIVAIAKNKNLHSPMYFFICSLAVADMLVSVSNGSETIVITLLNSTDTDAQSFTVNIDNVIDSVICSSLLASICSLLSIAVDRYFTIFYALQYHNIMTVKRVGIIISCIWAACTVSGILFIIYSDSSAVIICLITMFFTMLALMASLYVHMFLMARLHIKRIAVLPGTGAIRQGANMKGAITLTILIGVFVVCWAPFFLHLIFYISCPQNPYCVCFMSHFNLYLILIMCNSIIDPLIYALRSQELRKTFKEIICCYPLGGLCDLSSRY

Usually Ki stands for a measure of affinity in units of concentration, obtained from inhibition or displacement.

The first experiment has as its target T1, MC4 (Homo sapiens, UniProt P32245). Kind of experiment: biochemical.
Conditions: not given
For the molecule `N=C(N)NCCC[C@@H]1NC(=O)[C@@H](Cc2ccccc2)NC(=O)[C@H](Cc2c[nH]cn2)NC(=O)[C@H](CCC(=O)O)NC(=O)[C@@H](NC(=O)[C@@H](CCCNC(=N)N)NC(=O)CCC(=O)NS(=O)(=O)c2ccc3ccccc3c2)CSSC[C@@H](C(N)=O)NC(=O)[C@H](Cc2c[nH]c3ccccc23)NC1=O` [Compound No. 65, N-(2-naphthalenesulfonylamino-4-oxo-butyryl)-D-Arg-cyclo[Cys-Glu-His-D-Phe-Arg-Trp-Cys]-NH2], the affinity, expressed as Ki, was 6.53 nM.

`CC(=O)N[C@@H](Cc1ccc(O)cc1)C(=O)N[C@@H](CCCNC(=N)N)C(=O)N[C@H]1CSSC[C@@H](C(N)=O)NC(=O)[C@H](Cc2c[nH]c3ccccc23)NC(=O)[C@H](CCCNC(=N)N)NC(=O)[C@@H](Cc2ccccc2)NC(=O)[C@H](Cc2ncn(Cc3ccccc3)n2)NC(=O)[C@H](CCC(=O)O)NC1=O` [Compound No. 108] showed a Ki of 31.4 nM.

As for `CC(=O)N[C@@H](Cc1ccc(O)cc1)C(=O)N[C@@H](CCCNC(=N)N)C(=O)N[C@H]1CSSC[C@@H](C(N)=O)NC(=O)[C@H](Cc2c[nH]c3ccccc23)NC(=O)[C@H](CCCNC(=N)N)NC(=O)[C@@H](Cc2ccccc2)NC(=O)[C@@H](Cc2ncn(Cc3ccccc3)n2)NC(=O)[C@H](CCC(=O)O)NC1=O` [Compound No. 109], affinity was put at a Ki of 82.7 nM.

In a further experiment the target is T1, MC4.
Test: not given
As to conditions: read-out: MC4 Ki.
For `N=C(N)NCCC[C@@H]1NC(=O)[C@@H](Cc2ccccc2)NC(=O)[C@H](Cc2c[nH]cn2)NC(=O)[C@@H](N)CSSCC[C@@H](C(N)=O)NC(=O)[C@H](Cc2c[nH]c3ccccc23)NC1=O` [Compound No. 180, cyclo[Cys-His-D-Phe-Arg-Trp-hCys]-NH2], the Ki was 16.5 nM.

`N=C(N)NCCC[C@@H]1NC(=O)[C@@H](Cc2ccc(Cl)cc2)NC(=O)[C@H](Cc2c[nH]cn2)NC(=O)[C@@H](N)CSSCC[C@@H](C(N)=O)NC(=O)[C@H](Cc2c[nH]c3ccccc23)NC1=O` [Compound No. 182, cyclo[Cys-His-(4-Cl-D-Phe)-Arg-Trp-hCys]-NH2]: the Ki worked out at 0.89 nM.

Take `CC(=O)N[C@H]1CSSCC[C@@H](C(N)=O)NC(=O)[C@H](Cc2c[nH]c3ccccc23)NC(=O)[C@H](CCCNC(=N)N)NC(=O)[C@@H](Cc2ccccc2)NC(=O)[C@H](Cc2c[nH]cn2)NC1=O` [Compound No. 183, Ac-cyclo[Cys-His-D-Phe-Arg-Trp-hCys]-NH2]: the inhibition constant Ki amounted to 9.37 nM.

Regarding `CC(=O)N[C@H]1CSSCC[C@@H](C(N)=O)NC(=O)[C@H](Cc2c[nH]c3ccccc23)NC(=O)[C@H](CCCNC(=N)N)NC(=O)[C@@H](Cc2ccc(Cl)cc2)NC(=O)[C@H](Cc2c[nH]cn2)NC1=O` [Compound No. 185, Ac-cyclo[Cys-His-(4-Cl-D-Phe)-Arg-Trp-hCys]-NH2], the Ki was determined as 0.47 nM.

Take `N=C(N)NCCC[C@@H]1NC(=O)[C@@H](Cc2ccccc2)NC(=O)[C@H](Cc2c[nH]cn2)NC(=O)[C@@H](NC(=O)[C@@H](N)CCCNC(=N)N)CSSCC[C@@H](C(N)=O)NC(=O)[C@H](Cc2c[nH]c3ccccc23)NC1=O` [Compound No. 186, Arg-cyclo[Cys-His-D-Phe-Arg-Trp-hCys]-NH2]: the Ki is 5.21 nM.

In the case of `N=C(N)NCCC[C@@H]1NC(=O)[C@@H](Cc2ccc(F)cc2)NC(=O)[C@H](Cc2c[nH]cn2)NC(=O)[C@@H](NC(=O)[C@@H](N)CCCNC(=N)N)CSSCC[C@@H](C(N)=O)NC(=O)[C@H](Cc2c[nH]c3ccccc23)NC1=O` [Compound No. 187, Arg-cyclo[Cys-His-(4-F-D-Phe)-Arg-Trp-hCys]-NH2], the Ki was found to be 2.02 nM.

With `N=C(N)NCCC[C@@H]1NC(=O)[C@@H](Cc2ccc(Cl)cc2)NC(=O)[C@H](Cc2c[nH]cn2)NC(=O)[C@@H](NC(=O)[C@@H](N)CCCNC(=N)N)CSSCC[C@@H](C(N)=O)NC(=O)[C@H](Cc2c[nH]c3ccccc23)NC1=O` [Compound No. 188, Arg-cyclo[Cys-His-(4-Cl-D-Phe)-Arg-Trp-hCys]-NH2], the Ki came to 0.92 nM.

With `CC(=O)N[C@@H](CCCNC(=N)N)C(=O)N[C@H]1CSSCC[C@@H](C(N)=O)NC(=O)[C@H](Cc2c[nH]c3ccccc23)NC(=O)[C@H](CCCNC(=N)N)NC(=O)[C@@H](Cc2ccccc2)NC(=O)[C@H](Cc2c[nH]cn2)NC1=O` [Compound No. 189, Ac-Arg-cyclo[Cys-His-D-Phe-Arg-Trp-hCys]-NH2], the Ki was found to be 2.72 nM.

`CC(=O)N[C@@H](CCCNC(=N)N)C(=O)N[C@H]1CSSCC[C@@H](C(N)=O)NC(=O)[C@H](Cc2c[nH]c3ccccc23)NC(=O)[C@H](CCCNC(=N)N)NC(=O)[C@@H](Cc2ccc(F)cc2)NC(=O)[C@H](Cc2c[nH]cn2)NC1=O` [Compound No. 190, Ac-Arg-cyclo[Cys-His-(4-F-D-Phe)-Arg-Trp-hCys]-NH2]: the Ki was 0.17 nM.

Regarding `CC(=O)N[C@@H](Cc1ccc(O)cc1)C(=O)N[C@@H](CCCNC(=N)N)C(=O)N[C@H]1CSSCC[C@@H](C(N)=O)NC(=O)[C@H](Cc2c[nH]c3ccccc23)NC(=O)[C@H](CCCNC(=N)N)NC(=O)[C@@H](Cc2ccccc2)NC(=O)[C@H](Cc2c[nH]cn2)NC(=O)[C@H](CCC(=O)O)NC1=O` [Compound No. 192, Ac-Tyr-Arg-cyclo[Cys-Glu-His-D-Phe-Arg-Trp-hCys]-NH2], the Ki was determined as 36.7 nM.

For `CC(=O)N[C@H]1CCSSCC[C@@H](C(N)=O)NC(=O)[C@H](Cc2c[nH]c3ccccc23)NC(=O)[C@H](CCCNC(=N)N)NC(=O)[C@@H](Cc2ccccc2)NC(=O)[C@H](Cc2c[nH]cn2)NC1=O` [Compound No. 193, Ac-cyclo[hCys-His-D-Phe-Arg-Trp-hCys]-NH2], the Ki amounted to 2.59 nM.

For `CC(=O)N[C@@H](Cc1ccc(O)cc1)C(=O)N[C@@H](CCCNC(=N)N)C(=O)N[C@H]1CCSSCC[C@@H](C(N)=O)NC(=O)[C@H](Cc2c[nH]c3ccccc23)NC(=O)[C@H](CCCNC(=N)N)NC(=O)[C@@H](Cc2ccccc2)NC(=O)[C@H](Cc2c[nH]cn2)NC1=O` [Compound No. 196, Ac-Tyr-Arg-cyclo[hCys-His-D-Phe-Arg-Trp-hCys]-NH2], the Ki was determined as 2.1 nM.

For `CC(=O)N[C@@H](Cc1ccc(O)cc1)C(=O)N[C@@H](CCCNC(=N)N)C(=O)N[C@H]1CCSSCC[C@@H](C(N)=O)NC(=O)[C@H](Cc2c[nH]c3ccccc23)NC(=O)[C@H](CCCNC(=N)N)NC(=O)[C@@H](Cc2ccccc2)NC(=O)[C@H](Cc2c[nH]cn2)NC(=O)[C@H](CCC(=O)O)NC1=O` [Compound No. 197, Ac-Tyr-Arg-cyclo[hCys-Glu-His-D-Phe-Arg-Trp-hCys]-NH2], the Ki is 21.8 nM.

Turning to `CC(=O)N[C@H]1CSCSC[C@@H](C(N)=O)NC(=O)[C@H](Cc2c[nH]c3ccccc23)NC(=O)[C@H](CCCNC(=N)N)NC(=O)[C@@H](Cc2ccccc2)NC(=O)[C@H](Cc2c[nH]cn2)NC1=O` [Compound No. 198, Ac-cyclo(S-CH2-S)[Cys-His-D-Phe-Arg-Trp-Cys]-NH2], the Ki is 16.7 nM.
